This note sets out measurements from US9199944B2 (priority 2012, dated 2015).

The chains behind the UniProt entries cited, without tags or fusion partners.
UniProt Q07912, whole entry, species assumed: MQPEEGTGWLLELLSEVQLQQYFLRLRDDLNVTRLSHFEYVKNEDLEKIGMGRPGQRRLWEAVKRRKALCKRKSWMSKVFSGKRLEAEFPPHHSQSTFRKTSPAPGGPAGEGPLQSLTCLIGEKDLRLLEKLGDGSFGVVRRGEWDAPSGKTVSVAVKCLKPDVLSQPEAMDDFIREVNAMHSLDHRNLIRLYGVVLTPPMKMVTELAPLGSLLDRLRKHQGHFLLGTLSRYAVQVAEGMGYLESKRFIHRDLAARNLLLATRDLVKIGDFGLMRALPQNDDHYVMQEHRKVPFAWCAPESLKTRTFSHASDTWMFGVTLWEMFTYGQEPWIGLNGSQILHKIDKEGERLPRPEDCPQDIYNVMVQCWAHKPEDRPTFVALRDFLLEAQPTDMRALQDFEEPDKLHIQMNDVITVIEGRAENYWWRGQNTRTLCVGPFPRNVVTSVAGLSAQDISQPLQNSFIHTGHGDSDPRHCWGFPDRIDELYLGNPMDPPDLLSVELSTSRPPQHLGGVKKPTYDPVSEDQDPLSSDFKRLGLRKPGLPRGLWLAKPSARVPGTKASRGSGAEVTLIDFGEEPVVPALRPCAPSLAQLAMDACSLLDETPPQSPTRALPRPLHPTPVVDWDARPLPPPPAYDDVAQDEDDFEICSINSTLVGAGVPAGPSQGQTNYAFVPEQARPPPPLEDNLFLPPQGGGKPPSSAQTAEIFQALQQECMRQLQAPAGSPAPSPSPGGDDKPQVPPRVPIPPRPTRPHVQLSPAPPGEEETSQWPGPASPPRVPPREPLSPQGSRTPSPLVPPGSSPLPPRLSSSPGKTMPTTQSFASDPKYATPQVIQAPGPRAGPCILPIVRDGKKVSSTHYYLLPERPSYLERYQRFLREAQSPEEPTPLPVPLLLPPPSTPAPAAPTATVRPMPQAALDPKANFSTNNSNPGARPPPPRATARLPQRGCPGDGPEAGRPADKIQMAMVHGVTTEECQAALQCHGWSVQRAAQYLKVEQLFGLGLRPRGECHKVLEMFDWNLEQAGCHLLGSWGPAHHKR

The target of this assay is ACK1 (Homo sapiens (Human), UniProt Q07912). In words: biochemical. The following applies: 40 min; for remaining activity at 0.1 µM: read-out: Ack1 activation rate % (0.1 μM); for remaining activity at 1 µM: read-out: Ack1 activation rate % (1 μM).

Turning to `COc1cc(N2CCN(C(C)=O)CC2)ccc1Nc1ncc(F)c(Nc2ccc(N3CCN(C)CC3)cc2OC)n1` [Example 30, 1-(4-(4-(5-fluoro-4-(2-methoxy-4-(4-methylpiperazin-1-yl)phenylamino)pyrimidin-2-ylamino)-3-methoxyphenyl)piperazin-1-yl)ethanone], the remaining activity at 0.1 µM was determined as 2% and the remaining activity at 1 µM turned out to be 0%. As for `COc1cc(N2CCN(C(=O)OC(C)(C)C)CC2)ccc1Nc1ncc(C(F)(F)F)c(Nc2ccc(N3CCN(C(C)=O)CC3)cc2OC)n1` [Example 62, tert-butyl-4-(4-((4-((4-(4-acetylpiperazin-1-yl)-2-methoxyphenyl)amino)-5-(trifluoromethyl)pyrimidin-2-yl)amino)-3-methoxyphenyl)piperazin-1-carboxylate], the remaining activity at 0.1 µM is not above 10%. On to `COc1cc(N2CCNCC2)ccc1Nc1ncc(C(F)(F)F)c(Nc2ccc(N3CCN(C(C)=O)CC3)cc2OC)n1` [Example 63, 1-(4-(3-methoxy-4-((2-((2-methoxy-4-(piperazin-1-yl)phenyl)amino)-5-(trifluoromethyl)pyrimidin-4-yl)amino)phenyl)piperazin-1-yl)ethanone], for which the remaining activity at 0.1 µM came out at 2% and the remaining activity at 1 µM was determined as 0%. Regarding `COc1cc(N2CCN(C(C)=O)CC2)ccc1Nc1ncc(Cl)c(Nc2ccc(N3CCNCC3)cc2F)n1` [Example 81, 1-(4-(4-((5-chloro-4-((2-fluoro-4-(piperazin-1-yl)phenyl)amino)pyrimidin-2-yl)amino)-3-methoxyphenyl)piperazin-1-yl)ethanone], the remaining activity at 0.1 µM was 3% and the remaining activity at 1 µM was determined as 1%. For `COc1cc(N2CCN(C(C)=O)CC2)ccc1Nc1ncc(F)c(Nc2ccc(N3CCN(C(=O)CO)CC3)cc2OC)n1` [Example 36, 1-(4-(4-(2-(4-(4-acetylpiperazin-1-yl)-2-methoxyphenylamino)-5-fluoropyrimidin-4-ylamino)-3-methoxyphenyl)piperazin-1-yl)-2-hydroxyethanone] the same measures were 2% and 0%. With `COc1cc(N2CCN(C(C)=O)CC2)ccc1Nc1nc(Nc2ccc(N3CCN(C(C)=O)CC3)cc2)ncc1Cl` [Example 10, 1-(4-(4-(4-(4-(4-acetylpiperazin-1-yl)-2-methoxyphenylamino)-5-chloropyrimidin-2-ylamino)phenyl)piperazin-1-yl)ethanone], the remaining activity at 0.1 µM turned out to be 2% and the remaining activity at 1 µM was 0%. For `COc1cc(N2CCN(C(=O)CO)CC2)ccc1Nc1ncc(C(F)(F)F)c(Nc2ccc(N3CCN(C(=O)CO)CC3)cc2OC)n1` [Example 72, 1,1′-(4,4′-(((5-(trifluoromethyl)pyrimidin-2,4-diyl)bis(azanediyl))bis(3-methoxy-4,1-phenylene))bis(piperazin-4,1))bis(2-hydroxyethanone)], in that order: 1% and 0%. For `CC(=O)N1CCN(c2ccc(Nc3ncc(C(F)(F)F)c(Nc4ccc(N5CCN(C(C)=O)CC5)cc4OC(F)F)n3)c(OC(F)F)c2)CC1` [Example 73], in that order: 1% and 0%.

On to `CCOc1cc(N2CCN(C(C)=O)CC2)ccc1Nc1nc(Nc2ccc(N3CCN(C(C)=O)CC3)cc2OC)ncc1F` [Example 29, 1-(4-(4-(4-(4-(4-acetylpiperazin-1-yl)-2-ethoxyphenylamino)-5-fluoropyrimidin-2-ylamino)-3-methoxyphenyl)piperazin-1-yl)ethanone], for which the remaining activity at 0.1 µM was not above 10% and the remaining activity at 1 µM was not above 3%. For `COc1cc(N2CCN(C(C)=O)CC2)ccc1Nc1ncc(Cl)c(Nc2ccc(N3CCN(S(C)(=O)=O)CC3)cc2OC)n1` [Example 13, 1-(4-(4-(5-chloro-4-(2-methoxy-4-(4-(methylsulfonyl)piperazin-1-yl)phenylamino)pyrimidin-2-ylamino)-3-methoxyphenyl)piperazin-1-yl)ethanone], the remaining activity at 0.1 µM amounted to 0% and the remaining activity at 1 µM turned out to be 0%.

As to `COc1cc(N2CCN(C(C)=O)CC2)ccc1Nc1ncc(C(F)(F)F)c(Nc2ccc(N3CCN(CCO)CC3)cc2OC)n1` [Example 61, 1-(4-(4-((4-((4-(4-(2-hydroxyethyl)piperazin-1-yl)-2-methoxyphenyl)amino)-5-(trifluoromethyl)pyrimidin-2-yl)amino)-3-methoxyphenyl)piperazin-1-yl)ethanone], the remaining activity at 0.1 µM was 2% and the remaining activity at 1 µM amounted to 0%. For `COc1cc(N2CCN(C(C)=O)CC2)ccc1Nc1ncc(F)c(Nc2ccc(N3CCN(S(C)(=O)=O)CC3)cc2OC)n1` [Example 26, 1-(4-(4-(5-fluoro-4-(2-methoxy-4-(4-(methylsulfonyl)piperazin-1-yl)phenylamino)pyrimidin-2-ylamino)-3-methoxyphenyl)piperazin-1-yl)ethanone] the same measures were 0% and 1%. Regarding `COc1cc(N2CCN(C(C)=O)CC2)ccc1Nc1ccnc(Nc2ccc(N3CCN(C(C)=O)CC3)cc2OC)n1` [Example 19, 1,1′-(4,4′-(4,4′-(pyrimidin-2,4-diylbis(azanediyl))bis(3-methoxy-4,1-phenylene))bis(piperazin-4,1-diyl))diethanone], the remaining activity at 0.1 µM was determined as 6% and the remaining activity at 1 µM was 0%. For `CC(=O)N1CCN(c2ccc(Nc3ncc(Cl)c(Nc4ccc(N5CCN(C(C)=O)CC5)cc4)n3)cc2)CC1` [Example 9, 1,1′-(4,4′-(4,4′-(5-chloropyrimidin-2,4-diyl)bis(azanediyl)bis(4,1-phenylene))bis(piperazin-4,1-diyl))diethanone], in that order: 8% and 1%. For `CCC(=O)N1CCN(c2ccc(Nc3nc(Nc4ccc(N5CCN(C(C)=O)CC5)cc4OC)ncc3Cl)c(OC)c2)CC1` [Example 22, 1-(4-(4-(2-(4-(4-acetylpiperazin-1-yl)-2-methoxyphenylamino)-5-chloropyrimidin-4-ylamino)-3-methoxyphenyl)piperazin-1-yl)propan-1-one], in that order: 1% and 0%. As for `COc1cc(N2CCN(C(C)=O)CC2)ccc1Nc1ncc(F)c(Nc2ccc(N3CCN(CCO)CC3)cc2OC)n1` [Example 28, 1-(4-(4-(5-fluoro-4-(4-(4-(2-hydroxyethyl)piperazin-1-yl)-2-methoxyphenylamino)pyrimidin-2-ylamino)-3-methoxyphenyl)piperazin-1-yl)ethanone], the remaining activity at 0.1 µM amounted to 1% and the remaining activity at 1 µM was found to be 2%. As for `COc1cc(N2CCN(C(C)=O)CC2)ccc1Nc1nc(Nc2ccc(N3CCN(C(C)=O)CC3)cc2)ncc1F` [Example 24, 1-(4-(4-(4-(4-(4-acetylpiperazin-1-yl)-2-methoxyphenylamino)-5-fluoropyrimidin-2-ylamino)phenyl)piperazin-1-yl)ethanone], the remaining activity at 0.1 µM is 2% and the remaining activity at 1 µM came out at 0%. On to `CCCOc1cc(N2CCN(C(C)=O)CC2)ccc1Nc1nc(Nc2ccc(N3CCN(C(C)=O)CC3)cc2OC)ncc1Cl` [Example 2, 1-(4-(4-(2-(4-(4-acetylpiperazin-1-yl)-2-methoxyphenylamino)-5-chloropyrimidin-4-ylamino)-3-propoxyphenyl)piperazin-1-yl)ethanone], for which the remaining activity at 0.1 µM came out at 9% and the remaining activity at 1 µM was 2%. In the case of `CCNC(=O)N1CCN(c2ccc(Nc3nc(Nc4ccc(N5CCN(C(C)=O)CC5)cc4OC)ncc3C(F)(F)F)c(OC)c2)CC1` [Example 57, 4-(4-((2-((4-(4-acetylpiperazine)-2-methoxyphenyl)amino)-5-(trifluoromethyl)pyrimidin-4-yl)amino)-3-methoxyphenyl)-N-ethylpiperazin-1-carboxyamide], the remaining activity at 0.1 µM came to 1% and the remaining activity at 1 µM turned out to be 0%. For `COc1cc(N2CCN(C(C)=O)CC2)ccc1Nc1ncc(C(F)(F)F)c(Nc2ccc(N3CCNCC3)cc2OC)n1` [Example 56, 1-(4-(3-methoxy-4-((4-((2-methoxy-4-(piperazin-1-yl)phenyl)amino)-5-(trifluoromethyl)pyrimidin-2-yl)amino)phenyl)piperazin-1-yl)ethanone] the same measures were 1% and 0%. Turning to `COc1cc(N2CCN(S(C)(=O)=O)CC2)ccc1Nc1ncc(Cl)c(Nc2ccc(N3CCN(S(C)(=O)=O)CC3)cc2OC)n1`, the remaining activity at 0.1 µM turned out to be 0% and the remaining activity at 1 µM turned out to be 0%.

Consider `COc1cc(N2CCN(C(C)=O)CC2)ccc1Nc1ncc(C(F)(F)F)c(Nc2ccc(N3CCN(C(=O)CO)CC3)cc2OC)n1` [Example 58, 1-(4-(4-((2-((4-(4-acetylpiperazin-1-yl)-2-methoxyphenyl)amino)-5-(trifluoromethyl)pyrimidin-4-yl)amino)-3-methoxyphenyl)piperazin-1-yl)-2-hydroxyethanone], for which the remaining activity at 0.1 µM came to 5% and the remaining activity at 1 µM is 1%. For `COc1cc(N2CCN(C(C)=O)CC2)ccc1Nc1ncc(Cl)c(Nc2ccc(N3CCN(C(C)=O)CC3)cc2)n1` [Example 8, 1-(4-(4-(2-(4-(4-acetylpiperazin-1-yl)-2-methoxyphenylamino)-5-chloropyrimidin-4-ylamino)phenyl)piperazin-1-yl)ethanone] the same measures were 7% and 1%. For `COC(=O)N1CCN(c2ccc(Nc3nc(Nc4ccc(N5CCN(C(C)=O)CC5)cc4OC)ncc3F)c(OC(F)F)c2)CC1` [Example 41, methyl 4-(4-(2-(4-(4-acetylpiperazin-1-yl)-2-methoxyphenylamino)-5-fluoropyrimidin-4-ylamino)-3-(difluoromethoxy)phenyl)piperazin-1-carboxylate] the same measures were 1% and 0%.
